The results in this text go back to US20020042374A1, “METHOD OF TREATING INSULIN INSENSITIVITY AND SYNDROME X” (priority 1997, published 2002).

Protein sequences, listed by entry. Tags and fused reporters are not part of them. Lines headed by an entry give the natural chain unless they say otherwise; changes in a name come on top.
UniProt P31391: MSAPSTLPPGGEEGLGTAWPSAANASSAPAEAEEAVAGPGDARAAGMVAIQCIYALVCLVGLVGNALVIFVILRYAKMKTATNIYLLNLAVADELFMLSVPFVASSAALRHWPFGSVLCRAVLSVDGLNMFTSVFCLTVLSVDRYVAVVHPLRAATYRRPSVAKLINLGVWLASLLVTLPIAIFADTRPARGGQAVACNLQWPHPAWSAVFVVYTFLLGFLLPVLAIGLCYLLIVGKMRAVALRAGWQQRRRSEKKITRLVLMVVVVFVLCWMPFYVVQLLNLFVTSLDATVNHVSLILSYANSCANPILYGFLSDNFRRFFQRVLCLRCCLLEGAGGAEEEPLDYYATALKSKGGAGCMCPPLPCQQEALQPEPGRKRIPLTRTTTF

This test has as its target human SSTR-4 (Homo sapiens, UniProt P31391). Put plainly: Somatostatin receptor binding assay, hSSTR-4.

pKi: −log10 of the molar value.

One may read the pKi as −log10 of the Ki, conventionally taken in molar units. Low values mean a large Ki, high ones a small Ki. For `C[C@@H](O)[C@@H]1NC(=O)[C@H](CCCCN)NC(=O)[C@@H](Cc2c[nH]c3ccccc23)NC(=O)[C@H](Cc2ccccc2)NC(=O)[C@H](Cc2ccccc2)NC(=O)[C@@H](N)CSSC[C@@H](C(N)=O)NC(=O)[C@H](Cc2ccccc2)NC1=O` [BIM-23268, H-Cys-Phe-Phe-D-Trp-Lys-Thr-Phe-Cys-NH2], the pKi was 5.45.
